ChEMBL document CHEMBL1125778, “Development of a small RGD peptide fibrinogen receptor antagonist with potent antiaggregatory activity in vitro” (J Med Chem, 1991)

Chains of the proteins cited; added tags and fusions are not shown. Chains listed by the source or under a name are the forms on record and can include a tag or linker.
Integrin alpha-IIb/beta-3 (Canis familiaris), as listed by the source: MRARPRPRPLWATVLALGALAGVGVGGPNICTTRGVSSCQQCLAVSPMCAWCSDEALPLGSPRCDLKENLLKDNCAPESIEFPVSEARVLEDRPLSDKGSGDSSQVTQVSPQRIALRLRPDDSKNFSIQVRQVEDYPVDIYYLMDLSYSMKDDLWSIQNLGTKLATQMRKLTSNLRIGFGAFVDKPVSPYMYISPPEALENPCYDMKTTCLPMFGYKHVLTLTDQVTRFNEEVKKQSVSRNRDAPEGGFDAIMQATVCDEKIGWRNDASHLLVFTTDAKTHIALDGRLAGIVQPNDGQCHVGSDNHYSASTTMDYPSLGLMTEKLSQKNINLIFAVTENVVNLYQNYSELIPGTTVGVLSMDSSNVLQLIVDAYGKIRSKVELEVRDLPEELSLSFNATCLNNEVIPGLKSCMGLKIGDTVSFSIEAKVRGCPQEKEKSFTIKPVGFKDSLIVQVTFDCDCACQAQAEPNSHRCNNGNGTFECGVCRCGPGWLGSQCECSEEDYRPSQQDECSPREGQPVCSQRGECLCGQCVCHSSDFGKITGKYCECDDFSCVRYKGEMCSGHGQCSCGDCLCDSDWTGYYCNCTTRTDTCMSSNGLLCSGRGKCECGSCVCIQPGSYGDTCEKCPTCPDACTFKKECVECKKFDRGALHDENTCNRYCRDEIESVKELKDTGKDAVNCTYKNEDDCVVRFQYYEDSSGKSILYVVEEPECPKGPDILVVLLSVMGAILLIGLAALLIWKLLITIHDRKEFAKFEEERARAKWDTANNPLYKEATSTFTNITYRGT

Test system: Integrin alpha-IIb/beta-3 (Canis familiaris)
Assay: Inhibition of canine platelet-rich plasma induced by ADP
Parameters: concentration or dose not given beside the values
Details: Canis lupus familiaris, concentration not given here

Row | Structure (SMILES) | inhibition
1 | CC(=O)N[C@@H]1CSSC(C)(C)[C@H](C(N)=O)NC(=O)[C@H](CC(=O)O)NC(=O)CNC(=O)[C@@H](CCCN=C(N)N)NC1=O | 100%
2 | CC(=O)N[C@@H]1CSSC(C)(C)[C@H](C(N)=O)NC(=O)[C@@H](CC(=O)O)NC(=O)CNC(=O)[C@@H](CCCCN=C(N)N)NC1=O | 56%
3 | CC(=O)N[C@@H]1CSSC(C)(C)[C@H](C(N)=O)NC(=O)[C@@H](CC(=O)O)NC(=O)CNC(=O)[C@@H](CCCCN)NC1=O | 27%
4 | CC(=O)N[C@@H]1CSSC(C)(C)[C@H](C(N)=O)NC(=O)[C@@H](CC(=O)O)NC(=O)CNC(=O)[C@@H](CCCN=C(N)N)N(C)C1=O | 100%
5 | CC(=O)N[C@@H]1CSSC(C)(C)[C@H](C(N)=O)NC(=O)[C@H](CC(=O)O)NC(=O)CNC(=O)[C@H](CCCN=C(N)N)NC1=O | 100%
